These are literature values, as cited in patent publication US7622630B2, “Chimeric cancer models” (AVEO Pharmaceuticals, Inc., priority 2003, dated 2009).

This data set concerns HER2-positive non-small cell lung cancer. To be noted: human patients; literature report (Gatzemeier et al., Annals of Oncology 15:19-27 (2004)).

Turning to trastuzumab, the “efficacy in treating HER2-positive non-small cell lung cancer” value is reported as “do not seem efficacious”.
